Test results published in patent US7109245B2, “Vasoconstrictor cannabinoid analogs” (priority 2001, dated 2006).

Tested on: mesenteric branch arteries isolated from wild-type and CB1 receptor deficient mice
Assay: Calcium-induced relaxation of mouse isolated mesenteric branch arteries precontracted with norepinephrine
Conditions: SR141716A; wild-type and CB1 knockout mice; 5 μM norepinephrine precontraction

SMILES: Cc1c(C(=O)NN2CCCCC2)nn(-c2ccc(Cl)cc2Cl)c1-c1ccc(Cl)cc1 [SR141716A]
- inhibition of calcium-induced relaxation: concentration-dependent inhibition of calcium-induced relaxation
